Source: PubChem BioAssay AID720700 (The Scripps Research Institute Molecular Screening Center, 2013)
The list shows a part of the results, in another mix than the full data. The source made the active and inactive calls. No stated cut-off is given here; in the data, active means inhibition above about 9.5%; inactive means the rest.

By UniProt entry, the sequences of proteins in these tests, tags left out. Where a name states a change or a piece, a line headed by the entry shows the natural chain unless it says otherwise.
UniProt P19174: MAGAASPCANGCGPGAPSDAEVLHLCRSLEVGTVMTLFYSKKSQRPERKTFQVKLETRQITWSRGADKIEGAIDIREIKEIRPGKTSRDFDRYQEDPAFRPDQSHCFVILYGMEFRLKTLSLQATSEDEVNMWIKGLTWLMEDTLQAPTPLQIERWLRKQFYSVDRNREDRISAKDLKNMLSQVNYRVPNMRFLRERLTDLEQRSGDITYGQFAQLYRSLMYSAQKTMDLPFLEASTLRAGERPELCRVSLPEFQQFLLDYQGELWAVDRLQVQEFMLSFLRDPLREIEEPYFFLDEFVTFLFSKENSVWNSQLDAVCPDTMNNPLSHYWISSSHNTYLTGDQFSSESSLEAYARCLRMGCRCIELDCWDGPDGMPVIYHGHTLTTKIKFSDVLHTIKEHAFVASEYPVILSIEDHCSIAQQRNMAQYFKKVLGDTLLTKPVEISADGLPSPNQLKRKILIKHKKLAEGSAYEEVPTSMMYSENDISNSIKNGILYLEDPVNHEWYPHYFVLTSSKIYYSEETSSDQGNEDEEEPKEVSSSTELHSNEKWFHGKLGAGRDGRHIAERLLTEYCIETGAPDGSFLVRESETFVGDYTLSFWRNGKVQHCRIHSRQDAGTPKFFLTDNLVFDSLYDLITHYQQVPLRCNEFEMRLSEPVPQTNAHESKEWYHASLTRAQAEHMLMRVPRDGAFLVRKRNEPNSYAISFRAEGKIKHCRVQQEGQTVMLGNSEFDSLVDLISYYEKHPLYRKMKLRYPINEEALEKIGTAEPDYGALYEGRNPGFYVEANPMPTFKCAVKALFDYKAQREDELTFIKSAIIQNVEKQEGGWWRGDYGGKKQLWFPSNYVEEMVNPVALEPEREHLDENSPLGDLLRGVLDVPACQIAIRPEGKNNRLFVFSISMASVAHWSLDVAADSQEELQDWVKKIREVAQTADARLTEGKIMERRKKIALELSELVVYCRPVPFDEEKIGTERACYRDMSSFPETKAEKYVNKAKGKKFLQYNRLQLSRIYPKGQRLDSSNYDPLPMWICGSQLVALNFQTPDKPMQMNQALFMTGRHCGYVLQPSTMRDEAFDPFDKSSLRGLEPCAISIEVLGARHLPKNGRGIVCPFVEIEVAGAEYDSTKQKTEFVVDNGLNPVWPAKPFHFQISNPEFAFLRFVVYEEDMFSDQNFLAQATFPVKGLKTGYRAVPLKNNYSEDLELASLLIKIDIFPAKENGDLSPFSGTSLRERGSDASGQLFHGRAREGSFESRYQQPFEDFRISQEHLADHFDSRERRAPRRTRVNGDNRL

What follows are compounds tested against 1-phosphatidylinositol 4,5-bisphosphate phosphodiesterase gamma-1 (Homo sapiens) (UniProt P19174) (assay: blockers of human PLCG1 activity – biochemical, fluorescence, purified enzyme, primary screen (AID 720700)). Conditions: purified PLC-gamma1, fluorogenic substrate, at 12.2 µM, stronger effect = higher value.
`Cc1ccc(NP(=O)(Oc2cccc(C)c2)Oc2cccc(C)c2)nc1` was tested, and the inhibition was inactive: 3.3%. `c1ccc(-c2nn[nH]n2)c(-c2nn[nH]n2)c1` was tested, and the inhibition was inactive: 1.97%. In the case of `O=C(NC1CCS(=O)(=O)C1)NP(=S)(Oc1ccccc1)Oc1ccccc1` (stereo not given), the inhibition is reported as inactive: 2.22%. In the case of `CCNC(=S)/N=C(\N)N[N+](=O)[O-]`, the inhibition is reported as inactive: 2.31%. For `CN(C)C(=O)Oc1noc2ccccc12`, the inhibition was inactive: 1.83%. With `O=c1c2cc([N+](=O)[O-])ccc2[nH]c2c([N+](=O)[O-])cc([N+](=O)[O-])cc12` the inhibition was inactive: -0.1%. In the case of `Cc1ccccc1OP(=O)(Nc1ccccn1)Oc1ccccc1C`, the inhibition is reported as inactive: -5.11%. In the case of `CC(NC(=O)COC(=O)C(O)(c1ccccc1)c1ccccc1)c1ccccc1` (stereo not given), the inhibition is reported as inactive: 2.42%. With `CCC(=O)N1C2C3N(C(=O)CC)C1C1N(C(=O)CC)C(C(N1C(=O)CC)N3C(=O)CC)N2C(=O)CC` the inhibition was inactive: -1.47%. With `O=C(OC1CN2CCC1CC2)c1ccccc1` (stereo not given) the inhibition was inactive: -0.61%. For `Cc1ccc(OP(=O)(Nc2ccccn2)Oc2ccc(C)cc2)cc1`, the inhibition was inactive: 0.24%. For `CC(=O)NC(SC(=S)N(CC(C)C)CC(C)C)C(Cl)(Cl)Cl` (stereo not given), the inhibition was inactive: 1.45%. In the case of `COC(=O)c1cc2c(s1)N=C(c1ccccc1)N(C)P2(=O)N1CCOCC1` (stereo not given), the inhibition is reported as inactive: -1.85%. `CCn1c(=O)n(C2CCN(CC3CCCCCCC3)C[C@H]2CO)c2ccccc21` (stereo not given in full) was tested, and the inhibition was inactive: -0.35%. For `CN(C(=O)Cc1ccc(Cl)c(Cl)c1)[C@H]1CCCC[C@@H]1N1CCCC1`, the inhibition was inactive: -1%. In the case of `Cc1ccc(NP(=O)(Oc2ccccc2F)Oc2ccccc2F)nc1`, the inhibition is reported as inactive: 1.48%. In the case of `CCOP(=O)(Nc1ccccc1)OCC`, the inhibition is reported as inactive: -0.04%. `Cc1cc(SC(NC(=O)c2ccc(F)cc2)C(Cl)(Cl)Cl)ncn1` (stereo not given) was tested, and the inhibition was inactive: 1.33%. `CN(C)P(=O)(N(C)C)n1c(Nc2ccccc2)nnc1-c1ccccc1` was tested, and the inhibition was inactive: -2.18%. In the case of `O=P(Nc1nc2ccc(Cl)cc2s1)(c1ccccc1)c1ccccc1`, the inhibition is reported as inactive: 0.42%. `CCCC1OP(N)(=O)OCC1CC` (stereo not given) was tested, and the inhibition was inactive: 4.2%. `O=C(O)c1ccccc1[As](=O)(O)O` was tested, and the inhibition was inactive: 1.13%. In the case of `CC(=O)Nc1ccc([As](=O)(O)O)cc1`, the inhibition is reported as inactive: -0.32%. `Nc1cccc2ccc([As](=O)(O)O)cc12` was tested, and the inhibition was inactive: -498%. In the case of `CCN(N=Nc1nonc1N)c1nonc1N`, the inhibition is reported as inactive: 6.76%. With `CN(C(=O)Cc1ccccc1)C1CC[C@@]2(CCCO2)C[C@@H]1N1CCCC1` (stereo not given in full) the inhibition was inactive: -3.52%. With `Clc1ccc(Cl)c(NC2=NCC(CBr)S2)c1` (stereo not given) the inhibition was inactive: 0.94%. With `CN1CCCC(OC(=O)C(c2ccccc2)c2ccccc2)C1` (stereo not given) the inhibition was inactive: 2.78%. `Cc1ccc(OP(=O)(Nc2nccs2)Oc2ccc(C)cc2)cc1` was tested, and the inhibition was inactive: 0.93%. In the case of `COc1ccccc1OP(=O)(Nc1ccc(C)cn1)Oc1ccccc1OC`, the inhibition is reported as inactive: 3.78%. With `Cc1ccc(N/C(=N/P(=O)(N2CCOCC2)N2CCOCC2)N2CCOCC2)cc1` the inhibition was inactive: 4.11%. In the case of `CN(C(=O)Cc1ccc(Cl)c(Cl)c1)[C@H]1CCCC[C@H]1N1CCCC1`, the inhibition is reported as inactive: 4.87%. With `NC(=O)c1cc([N+](=O)[O-])cc([N+](=O)[O-])c1N` the inhibition was inactive: 4.66%. For `O=C(NC(Sc1ccncn1)C(Cl)(Cl)Cl)c1ccccc1` (stereo not given), the inhibition was inactive: 1.4%. `Oc1ccccc1CNc1ccccn1` was tested, and the inhibition was inactive: 0.84%. `CC(C)CC(=O)NC(Sc1ccc(Cl)cc1)C(Cl)(Cl)Cl` (stereo not given) was tested, and the inhibition was inactive: 0.72%. With `Nc1cc(N)c2nonc2c1[N+](=O)[O-]` the inhibition was inactive: -10.2%. For `O=[N+]([O-])c1cc([N+](=O)[O-])c(CCNc2ccccc2)c([N+](=O)[O-])c1`, the inhibition was inactive: 9.18%. With `CCc1nc2c(n1)c1c(non1O)c1c2no[n+]1[O-]` the inhibition was inactive: 0.66%. `Cc1ccc(NP(=O)(Oc2ccccc2)Oc2ccccc2)nc1` was tested, and the inhibition was inactive: -0.19%. For `CC(=O)N1C2C3N(C(C)=O)C1C1N(C(C)=O)C(C(N1C(C)=O)N3C(C)=O)N2C(C)=O`, the inhibition was inactive: 7.34%. In the case of `O=[N+]([O-])c1cccc2n[nH]nc12`, the inhibition is reported as inactive: -1.69%. In the case of `COc1ccc(C2=NCC(CBr)S2)cc1` (stereo not given), the inhibition is reported as inactive: 0.17%. `c1cc(-c2nn[nH]n2)ccc1-c1nn[nH]n1` was tested, and the inhibition was inactive: 6.24%. In the case of `CC1CCN(C(=O)Oc2c(Cl)cc(Cl)c3cccnc23)CC1`, the inhibition is reported as inactive: 1.22%. With `CN(C)C(=O)OCCc1n(C)cc[n+]1C` the inhibition was inactive: 0.01%. `CC(C)=N/N=C(\N)N[N+](=O)[O-]` was tested, and the inhibition was inactive: -1.15%. In the case of `CC(C)c1nc(Nc2ccccc2)n(P(=O)(N(C)C)N(C)C)n1`, the inhibition is reported as inactive: 3.95%. With `CCN(/C(=N/P(=O)(N1CCOCC1)N1CCOCC1)N1CCOCC1)c1ccc(OC)cc1` the inhibition was inactive: 2.29%. With `C[N+]1=C2C=CC=CC=C2SC12C([N+](=O)[O-])=CC([N+](=O)[O-])=C[C-]2[N+](=O)[O-]` (stereo not given) the inhibition was inactive: 5.79%.
